Measured values: US8106197B2, “Aminoheteroaryl compounds as protein kinase inhibitors” (Pfizer Inc., priority 2003, dated 2012)

Protein sequences, listed by entry. Tags and fused reporters are not part of them. Residues count along the entry.
UniProt P08581, 1078-1345 limits assumed: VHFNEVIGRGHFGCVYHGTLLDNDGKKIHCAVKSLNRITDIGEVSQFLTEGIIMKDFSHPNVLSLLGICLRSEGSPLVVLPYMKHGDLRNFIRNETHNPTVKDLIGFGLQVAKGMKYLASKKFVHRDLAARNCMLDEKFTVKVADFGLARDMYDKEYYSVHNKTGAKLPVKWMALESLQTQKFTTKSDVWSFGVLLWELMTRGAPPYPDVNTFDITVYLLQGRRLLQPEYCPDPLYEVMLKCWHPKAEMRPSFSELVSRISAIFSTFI

Biological target: T1, GST fusion protein containing the Met kinase domain (Homo sapiens, UniProt P08581)
T1 construct: Purified GST fusion protein containing the Met kinase domain, SUGEN, Inc
Assay: MET transphosphorylation assay (ELISA, poly(glu-tyr) substrate)
Format: biochemical
Description: MET Transphosphorylation Assay
8. 10% aqueous (MilliQue H2O) DMSO.
11. 4× ATP Reaction Mixture: for 10 mL, mix 0.4 mL 1 M manganese chloride and 0.02 mL 0.1 M ATP in 9.56 mL dH2O.
12. 4× Negative Controls Mixture: for 10 mL, mix 0.4 mL 1 M manganese chloride in 9.6 mL dH2O.
17. Goat anti-rabbit horseradish peroxidase conjugated antibody, Biosource, Inc.
18. ABTS Solution: for 1 L, mix 19.21 g citric acid, 35.49 g Na2HPO4 and 500 mg ABTS with sufficient dH2O to make 1 L.
2. Block plate with 150 μL of 5% BSA/PBS for 60 min.
4. Add 50 μl of the diluted kinase to all wells. (Purified kinase is diluted with Kinase Dilution Buffer. Final concentration should be 10 ng/well.)
5. Add 25 μL of the test compound (in 4% DMSO) or DMSO alone (4% in dH2O) for controls to plate.
6. Incubate the kinase/compound mixture for 15 minutes.
7. Add 25 μL of 40 mM MnCl2 to the negative control wells.
8. Add 25 μL ATP/MnCl2 mixture to the all other wells (except the negative controls). Incubate for 5 min.
9. Add 25 μL 500 mM EDTA to stop reaction.
10. Wash plate 3× with TBST.
11. Add 100 μL rabbit polyclonal anti-Ptyr diluted 1:10,000 in Antibody Dilution Buffer to each well. Incubate, with shaking, at room temperature for one hour.
12. Wash plate 3× with TBST.
13. […] Add 100 μL per well and incubate at room temperature, with shaking, for one hour.
14. Wash plate 1× with PBS.
15. Add 100 μl of ABTS/H2O2 solution to each well.
16. […]

## Nc1ncc(-c2cccc(C(=O)NCCN3CCOCC3)c2)nc1OCc1cccc(F)c1C(F)(F)F [II-123, 3-[5-Amino-6-(3-fluoro-2-trifluoromethyl-benzyloxy)-pyrazin-2-yl]-N-{2-[ethyl-(2-methoxy-ethyl)-amino]-ethyl}-benzamide]
  IC50: 450 nM
